Data set [1] can be described thus: Vital signs before and after ^18F-αvβ6-BP injection. The format is in vivo, human. Conditions: Example 3 patient, 340 MBq i.v. bolus. The method, then:
The patient was injected with ^18F-αvβ6-BP (340 MBq) as a rapid intravenous bolus. Prior to injection, blood samples were drawn. Immediately before and after the injection the patients vital signs (blood pressure, heart rate, pulse oximetry value and body temperature) were measured. The patient rested for 1 hour prior to the PET/CT scan. The PET scan was performed on a GE Discovery 690 PET/CT scanner at 2 minutes per bed position. A PET/CT acquisition of the thorax with arms up was performed with a typical low dose level CT scan (140 kV ‘smart mA’ [50-350 mA], noise index 20) of the thorax for attenuation correction. Immediately following, a second nonattenuation corrected PET scan was acquired from the skull vertex to the proximal thighs with arms up.

Sequences of proteins named here, by UniProt entry; tags and fusion partners are left off. Residues count along the entry.
UniProt P06756, 891-1048 partner limits assumed: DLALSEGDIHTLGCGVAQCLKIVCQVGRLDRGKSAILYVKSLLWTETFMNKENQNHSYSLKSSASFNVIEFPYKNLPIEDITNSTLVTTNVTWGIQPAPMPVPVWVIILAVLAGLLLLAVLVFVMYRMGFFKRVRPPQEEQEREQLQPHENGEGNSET
UniProt P06756, 31-889 limits assumed: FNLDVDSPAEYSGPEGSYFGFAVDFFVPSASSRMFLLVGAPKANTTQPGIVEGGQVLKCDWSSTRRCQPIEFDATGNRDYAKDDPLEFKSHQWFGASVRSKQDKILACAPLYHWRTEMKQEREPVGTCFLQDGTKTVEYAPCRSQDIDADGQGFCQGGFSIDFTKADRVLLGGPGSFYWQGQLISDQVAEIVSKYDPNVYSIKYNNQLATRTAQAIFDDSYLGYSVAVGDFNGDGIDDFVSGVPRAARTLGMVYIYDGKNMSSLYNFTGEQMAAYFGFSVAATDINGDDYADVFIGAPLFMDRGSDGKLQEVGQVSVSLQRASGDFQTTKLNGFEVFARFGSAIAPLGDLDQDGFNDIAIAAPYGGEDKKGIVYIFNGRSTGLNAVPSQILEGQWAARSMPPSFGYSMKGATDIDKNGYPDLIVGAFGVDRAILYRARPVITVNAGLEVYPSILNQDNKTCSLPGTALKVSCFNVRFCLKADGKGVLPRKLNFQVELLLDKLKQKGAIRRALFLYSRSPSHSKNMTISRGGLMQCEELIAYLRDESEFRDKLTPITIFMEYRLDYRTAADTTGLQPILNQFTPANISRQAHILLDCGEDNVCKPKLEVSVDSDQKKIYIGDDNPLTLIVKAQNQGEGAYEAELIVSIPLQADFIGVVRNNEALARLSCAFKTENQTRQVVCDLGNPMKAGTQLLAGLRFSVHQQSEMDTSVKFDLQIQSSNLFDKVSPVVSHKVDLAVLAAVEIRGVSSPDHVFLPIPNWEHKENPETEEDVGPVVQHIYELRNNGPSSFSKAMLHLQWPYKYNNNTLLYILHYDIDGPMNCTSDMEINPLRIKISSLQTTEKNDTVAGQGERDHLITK
UniProt P18564, 22-788: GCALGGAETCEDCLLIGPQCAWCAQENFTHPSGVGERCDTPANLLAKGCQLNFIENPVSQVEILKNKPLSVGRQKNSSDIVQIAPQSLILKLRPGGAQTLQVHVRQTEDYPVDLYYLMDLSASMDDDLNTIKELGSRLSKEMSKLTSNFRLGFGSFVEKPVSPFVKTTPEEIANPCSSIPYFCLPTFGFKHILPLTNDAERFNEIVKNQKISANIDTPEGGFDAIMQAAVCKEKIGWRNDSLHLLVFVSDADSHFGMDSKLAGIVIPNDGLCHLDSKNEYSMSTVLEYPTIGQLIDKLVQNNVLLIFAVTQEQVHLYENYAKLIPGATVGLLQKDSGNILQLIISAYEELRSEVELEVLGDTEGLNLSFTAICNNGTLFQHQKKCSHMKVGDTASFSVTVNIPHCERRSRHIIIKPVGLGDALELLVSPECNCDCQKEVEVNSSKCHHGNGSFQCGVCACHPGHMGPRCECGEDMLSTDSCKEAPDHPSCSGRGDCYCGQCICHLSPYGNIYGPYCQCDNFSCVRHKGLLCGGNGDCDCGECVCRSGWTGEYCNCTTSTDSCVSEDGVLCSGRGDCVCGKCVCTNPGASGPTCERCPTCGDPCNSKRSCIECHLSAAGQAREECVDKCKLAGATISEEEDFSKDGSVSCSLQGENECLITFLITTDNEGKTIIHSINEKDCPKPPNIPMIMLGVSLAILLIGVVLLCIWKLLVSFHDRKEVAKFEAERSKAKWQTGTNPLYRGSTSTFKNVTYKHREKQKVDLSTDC

Data set [2] in a line: clinical. Conditions: human, in vivo, total radioactivity.
For data set [3], the target named is T1, integrin αvβ6 (Homo sapiens, UniProt P06756+P18564). The settings on record: Example 3 patient.
The nature of data set [4]: Radiation dosimetry of ^18F-αvβ6-BP (OLINDA/EXM). The format is in vivo, human. The protocol:
All participants were scanned at 30, 60, 120, and 180 minutes post ^18F-αvβ6-BP injection. Reconstruction of the images was performed using OSEM. PET/CT image review was performed in multiple formats including axial, sagittal, coronal, fused, unfused, corrected and uncorrected datasets on a GE Advantage Workstation version 4.5 (VolumeViewer 9.5) and GE AW Server 3.2 ext3 (VolumeViewer 14 ext4). Organ specific analysis was performed using Organ Level Internal Dose Assessment/EXponential Modeling (OLINDA/EXM) version 1.1 (Vanderbuilt University) with updated weighting factors from the International Commission on Radiation Protection (ICRP) 103 (2007). Individual regions within specific organ sites were taken using 8 cm^3 (2×2×2 cm) volumes and SUVmax was recorded at all four time points for the first 19 participants. […] Radioactivity was seen throughout the gastrointestinal tract with anterograde movement over time. The average SUV value for normal lung was 0.56, the range observed was 0.3-1.0 and no significant changes were noted between the imaging times points. […] The mean effective dose for ^18F-αvβ6-BP was 0.02 mSv/MBq.
This study uses a microdose study and the actual mass of drug injected based on the 10 mCi (±20%) (molar activity >1Ci/μmole) injection dose of ^18F-αvβ6-BP is less than 50 μgrams (below 100 μgrams). […]

Data set [5] addresses T1, integrin αvβ6.

Consider `CC(C)C[C@H](NC(=O)[C@H](CC(=O)O)NC(=O)CNC(=O)[C@H](CCCNC(=N)N)NC(=O)[C@H](CC(C)C)NC(=O)[C@H](CC(N)=O)NC(=O)[C@@H]1CCCN1C(=O)[C@@H](NC(=O)[C@H](C)NC(=O)[C@H](CC(N)=O)NC(=O)CCOCCOCCOCCOCCOCCOCCOCCOCCOCCOCCOCCOCCOCCOCCOCCOCCOCCOCCOCCOCCOCCOCCOCCOCCOCCOCCOCCOCCNC(=O)c1ccc(F)cc1)C(C)C)C(=O)N[C@@H](CCC(N)=O)C(=O)N[C@H](C(=O)N[C@@H](CC(C)C)C(=O)N[C@@H](C)C(=O)N[C@@H](CCC(N)=O)C(=O)N[C@@H](CCCNC(=N)N)C(=O)N[C@H](C(=O)N[C@@H](C)C(=O)N[C@@H](CCCNC(=N)N)C(=O)N[C@H](C(=O)NCCOCCOCCOCCOCCOCCOCCOCCOCCOCCOCCOCCOCCOCCOCCOCCOCCOCCOCCOCCOCCOCCOCCOCCOCCOCCOCCOCCOCCC(N)=O)[C@@H](C)O)C(C)C)C(C)C` [^18F-αvβ6-BP, PEG28-[A20FMDV2(K16R)]-PEG28], for which, in data set [1], the “vital signs during the study” value is reported as “No changes in vital signs”. Also, the SUV came out at 0.3 SUV in data set [2] (SUV range observed for normal lung); 0.56 SUV in data set [2] (average SUV value for normal lung, SUVmax in 8 cm^3 volumes, 30, 60, 120, 180 min post injection, first 19 participants); 6 SUV in data set [2] (lung carcinoma SUV range, abnormalities noted in the lung); 2.5 SUV in data set [2] (lung metastasis SUV range, abnormalities noted in the lung); 2 SUV in data set [2] (suspect fibrosis SUV range, abnormalities noted in the lung). Further, the “SUVmax in regions of normal lung parenchyma” value in data set [3] (1 h after 340 MBq i.v.) is reported as 0.8-1.0. Further, the “uptake in normal lung parenchyma” value in data set [3] (words) is given as “Minimal uptake”. The mean effective dose in data set [4] (OLINDA/EXM 1.1, ICRP 103 weighting factors) came to 0.02 mSv/MBq. For the same compound, the effective dose in data set [4] (maximum injected dose 10 mCi/370 MBq) is on record as 7.41 mSv. Moreover, the “background uptake in normal brain, lungs, liver and osseous skeleton” value in data set [5] (PET images, 26 subjects, words) is recorded as “low background uptake”. The “radioactivity in pituitary, lacrimal glands, salivary glands, thyroid, esophagus, stomach, small intestine, large intestine, kidneys, pancreas, bladder, uterus, prostate gland” value in data set [5] (PET, words) is given as “Detectable radioactivity”. The “uptake in the brain, lungs and liver” value in data set [5] (PET, words) is given as “Very low/trace uptake”. For the same compound, the elimination of radioactivity entry in data set [5] (over time, via kidneys) is reported as “continuous elimination via urine into the bladder”.
